Measured values reported in US9387135B2, “Absorbent article” (UNICHARM CORPORATION, priority 2012, dated 2016).

Text: The term “solubility” used herein in regard to water solubility includes cases where the sample completely dissolves in deionized water to form a homogeneous mixture, and cases where the sample is completely emulsified. Here, “completely” means that no mass of the sample remains in the deionized water.

Substance | Water solubility
Polyoxyethylenepolyoxypropylene pentaerythritol ether [UNILUBE 5TP-300KB] | less than 0.05 g
Polyoxybutylene polyoxypropylene glycol [UNIOL PB700] | <0.05 g
